Screening data deposited in PubChem BioAssay by Broad Institute.
ERp5 block = inhibitors of ERp5-driven insulin aggregation, primary screen, biochemical, turbidity, absorbance 650 nm, single point; Protein disulfide-isomerase A6 (Homo sapiens), Q15084; 90 min; inhibition, % at 9.99 µM; hit rate 0.05% among 350,000; AID 651711, 2012;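 active = mean replicate inhibition above about 25%, with every replicate also reaching it, limit read from the data, passing the limit was not always enough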
SIRT5 block = SIRT5 desuccinylase inhibitors, primary screen, biochemical, fluorescence imaging, single point, set 5; Purified SirT5, succinyl-peptide AMC, trypsin-coupled fluorescence; inhibition, % at 15 µM; hit rate 1.1% among 330,000; AID 652115, 2013; in the data active = inhibition above about 15%
S100A4 MyoIIA = inhibitors of S100A4-myosin IIA peptide binding, primary screen, biochemical, fluorescence polarization, TAMRA-MyoIIA peptide | Protein S100-A4 (Homo sapiens), P26447 | inhibition, % at 10.7 µM | hit rate 0.14% among 360,000;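 active = mean inhibition of at least 70% across replicates, with every replicate also reaching that level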
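incubation = readout 5 min after mixing, signal stable up to 60 min | system = S100A4 monomer protein | buffer or medium = HEPES pH 7.2 with CaCl2, KCl, NaCl, DTT, Triton | benchmarks = neutral control DMSO, positive control TFP | also added = fluorescent myosin IIA peptide, 5 nM | compound dosing = one concentration per compound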
FGF22 binding = binders of human FGF22 protein, primary screen, FGF22 synaptogenesis inhibitor project, biophysical, thermal shift, single point; Fibroblast growth factor 22 (Homo sapiens), Q9HCT0; recombinant FGF22 thermal shift, SYPRO orange fluorescence; percent of sucrose octasulfate shift, DMSO zero; activity (Tm shift, normalised), % at 9.99 µM; hit rate 1.5% among 340,000;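 active = mean Tm shift, scaled 0 neutral to 100 positive control, at about 1.3% or above, every replicate too, limit read from the data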
PDI inh = inhibitors of human PDI, primary screen, biochemical, turbidity, single point, plate reader; PDI insulin aggregation turbidity, A650, 90 min; inhibition, % at 10 µM; hit rate 0.052% among 350,000; Protein disulfide-isomerase (Homo sapiens), P07237;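 active = mean inhibition across replicates of 30% or more, whatever share of single replicates reach that level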
Yeast UUG start = modulators of yeast start codon fidelity, primary screen, whole organism, S. cerevisiae, single point, plate reader; S. cerevisiae UUG-firefly luciferase reporter, luminescence/redox ratio; activity score, % at 18.7 µM; 0.13% of 350,000 active; AID 602363, 2012;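 active = replicate mean at a twofold rise or more, about +100% in these data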;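 also: firefly luciferase made from a UUG start codon reports start codon fidelity; reporter light over untreated wells divided by growth signal over untreated wells; some hits fall short of that in this replicate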
* = called active by the depositor; x = no result given; ! = repeats disagree. The list is not random: actives were taken first. Their share in the collection is about 2.2%.

The chains behind the UniProt entries cited, without tags or fusion partners.
Protein disulfide-isomerase A6 (Homo sapiens), Q15084, UniProt Q15084, whole entry, looked up: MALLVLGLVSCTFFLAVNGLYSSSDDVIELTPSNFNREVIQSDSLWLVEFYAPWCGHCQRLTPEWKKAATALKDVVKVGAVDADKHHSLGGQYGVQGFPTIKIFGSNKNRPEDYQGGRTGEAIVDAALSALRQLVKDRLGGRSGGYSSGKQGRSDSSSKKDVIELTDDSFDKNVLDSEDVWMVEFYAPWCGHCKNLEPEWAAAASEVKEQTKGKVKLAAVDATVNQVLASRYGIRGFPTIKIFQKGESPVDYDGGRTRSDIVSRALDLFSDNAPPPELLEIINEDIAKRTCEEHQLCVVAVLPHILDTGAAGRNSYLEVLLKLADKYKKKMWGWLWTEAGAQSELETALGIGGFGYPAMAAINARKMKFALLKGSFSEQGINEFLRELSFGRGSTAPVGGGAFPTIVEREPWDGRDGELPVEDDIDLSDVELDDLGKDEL

Codes – A = ERp5 block; B = SIRT5 block; C = S100A4 MyoIIA; D = FGF22 binding; E = PDI inh; F = Yeast UUG start
Cc1ccccc1-c1ccc2c(c1)O[C@H](CN(C)C(=O)Nc1ccccc1)[C@@H](C)CN([C@H](C)CO)S2(=O)=O
  A = -4 | B = 9 | C = 12 | D = 0 | E = x | F = -15
C[C@H](CO)N1C[C@H](C)[C@H](CN(C)C(=O)Nc2cc(F)ccc2F)Oc2cc(/C=C/c3ccccc3)ccc2S1(=O)=O
  A = 0 | B = x | C = -4 | D = 2.0* | E = x | F = -14
C/C=C/c1ccc2c(c1)O[C@@H](CN(C)C(=O)Nc1ccc(C(F)(F)F)cc1)[C@@H](C)CN([C@@H](C)CO)S2(=O)=O
  A = -2 | B = 8 | C = -2 | D = 1.3* | E = x | F = -1
CCC(=O)N1[C@@H](CO)[C@@H](c2ccc(-c3ccccc3C)cc2)C12CN(C(C)=O)C2
  A = -6 | B = -4 | C = 2 | D = 0 | E = x | F = x
C[C@H](CO)N1C[C@H](C)[C@H](CN(C)C(=O)Nc2ccc(F)cc2)Oc2cc(/C=C/c3ccccc3)ccc2S1(=O)=O
  A = 1 | B = 21* | C = 6 | D = -1 | E = x | F = -30
C[C@H](CO)N1C[C@H](C)[C@H](CN(C)C(=O)Nc2cccc(F)c2)Oc2cc(/C=C/c3ccccc3)ccc2S1(=O)=O
  A = 1 | B = 0 | C = 7 | D = 0 | E = x | F = 17
C[C@@H]1CN([C@H](C)CO)S(=O)(=O)c2ccc(-c3cccc(F)c3)cc2O[C@H]1CN(C)C(=O)Nc1cc(F)ccc1F
  A = 2 | B = 16* | C = -4 | D = -1 | E = x | F = 9
O=C(Nc1cccc(Cl)c1)N1C[C@H]2[C@@H](c3ccccc31)[C@H](CO)N2Cc1ccncc1
  A = 2 | B = 0 | C = 8 | D = 1 | E = x | F = -12
C[C@H](O)C#Cc1ccc2c(c1)O[C@@H](CN(C)CC1CCOCC1)[C@H](C)CN([C@H](C)CO)S2(=O)=O
  A = x | B = x | C = x | D = 0 | E = x | F = 8
COc1ccc2c3c(n(C)c2c1)[C@H](CO)N(C(=O)CN1CCOCC1)CC31CN(Cc2ccncc2)C1
  A = -8 | B = -2 | C = 1 | D = 0 | E = x | F = x
COc1ccc2c3c(n(C)c2c1)[C@@H](CO)N(C(=O)NC(C)C)CC31CN(C(=O)NC(C)C)C1
  A = 5 | B = 1 | C = -47 | D = 0 | E = x | F = x
Cc1[nH]c2ccccc2c1/C=N/Nc1ccccc1[N+](=O)[O-]
  A = -5 | B = -1 | C = 9 | D = 1.9* | E = -3 | F = x
Cc1[nH]c2ccccc2c1/C=N\NC(=O)c1ccccc1Cl
  A = -3 | B = x | C = 0 | D = 43* | E = -2 | F = -15
NNC(=O)c1cccc(S(=O)(=O)Nc2cccc(C(F)(F)F)c2)c1
  A = -4 | B = -3 | C = 2 | D = 0 | E = -2 | F = -18
Cc1[nH]c2ccccc2c1/C=N/NC(=O)c1cccc(S(=O)(=O)Nc2cccc(C(F)(F)F)c2)c1
  A = -3 | B = 1 | C = 5 | D = 43* | E = -11 | F = x
COc1ccc(NS(=O)(=O)c2cc([N+](=O)[O-])ccc2N/N=C/c2c(C)[nH]c3ccccc23)cc1
  A = 3 | B = -2 | C = -7 | D = 0 | E = -6 | F = -9
CN(C)C(=O)c1ccc(-c2ccc([C@H]3[C@@H](CO)N4CCCCN(C(=O)C5CCCC5)C[C@H]34)cc2)cc1
  A = 1 | B = -1 | C = 7 | D = 0 | E = x | F = 13
CN(C)CCCNC(=O)C[C@@H]1C=C[C@@H](NS(=O)(=O)c2ccc(F)cc2)[C@H](CO)O1
  A = 0 | B = 2 | C = 8 | D = 0 | E = x | F = -7
CCCCN1CC(=O)N2[C@H](c3ccc(OC)cc3)[C@@H]3C(=O)N(CC)C(=O)[C@@H]3[C@]2(Cc2ccccc2)C1=O
  A = 7 | B = 27* | C = -3 | D = 0 | E = -2 | F = -4
CCN1C(=O)[C@H]2[C@@H](c3ccc(OC)cc3)N3C(=O)CN(CCOC)C(=O)[C@@]3(Cc3ccccc3)[C@H]2C1=O
  A = -2 | B = -6 | C = 2 | D = 0 | E = -3 | F = 11
COC(=O)c1c2oc(c1C(=O)OC)C(=O)N[C@H](Cc1ccccc1)Cn1cc(nn1)[C@H](Cc1ccccc1)NC(=O)N[C@H](CO)CC2
  A = -1 | B = 6 | C = 6 | D = 0 | E = x | F = 71
C[C@H](CO)N1C[C@H](C)[C@H](CN(C)S(=O)(=O)c2ccc(Cl)cc2)OCc2ccccc2-c2c(n(C)c3ccccc23)C1=O
  A = 2 | B = 22*! | C = 1 | D = 0 | E = -4 | F = 17
Cc1cccc(S(=O)(=O)N(C)C[C@@H]2OCc3ccccc3-c3c(n(C)c4ccccc34)C(=O)N([C@H](C)CO)C[C@@H]2C)c1
  A = 4 | B = 20* | C = -11 | D = 0 | E = x | F = -13
Cc1cccc(S(=O)(=O)N(C)C[C@H]2OCc3ccccc3-c3c(n(C)c4ccccc34)C(=O)N([C@H](C)CO)C[C@@H]2C)c1
  A = 2 | B = 4 | C = 7 | D = 0 | E = x | F = 1
Cc1ccc(S(=O)(=O)N(C)C[C@@H]2OCc3ccccc3-c3c(n(C)c4ccccc34)C(=O)N([C@H](C)CO)C[C@@H]2C)cc1
  A = -2 | B = 18*! | C = 0 | D = 0 | E = 1 | F = x

(cont.)
Codes – A = ERp5 block; B = SIRT5 block; C = S100A4 MyoIIA; D = FGF22 binding; E = PDI inh; F = Yeast UUG start
C[C@@H]1CN([C@H](C)CO)C(=O)c2ccccc2-c2ccccc2CO[C@H]1CN(C)S(=O)(=O)c1cccs1
  A = 2 | B = 18* | C = -8 | D = 0 | E = x | F = x
CNC[C@H]1OCCCC[C@H](C)Oc2ccc(NC(=O)Nc3ccc4c(c3)OCO4)cc2C(=O)N([C@@H](C)CO)C[C@@H]1C
  A = -3 | B = -1 | C = 3 | D = -1 | E = x | F = 16
C[C@@H]1CN([C@@H](C)CO)C(=O)c2ccccc2-c2ccccc2CO[C@H]1CN(C)S(=O)(=O)c1ccc(Cl)cc1
  A = 3 | B = 15* | C = 3 | D = -1 | E = x | F = x
CNC(=O)C[C@H]1CC[C@H]2[C@@H](COc3ccc(NC(=O)c4ccno4)cc3C(=O)N2C)O1
  A = x | B = x | C = x | D = 0 | E = x | F = -10
CC(C)NCC(O)COc1ccc(Br)cc1 (stereo unspecified)
  A = 4 | B = -2 | C = -1 | D = 44* | E = -1 | F = x
O=C1c2ccccc2C(=O)c2c1ccc1c(=O)n(C3CCCCC3)[nH]c21
  A = 0 | B = 19* | C = -6 | D = x | E = -3 | F = -10
O=C(Nc1ccccc1)N[C@@H]1CC[C@@H](CCNC(=O)c2ccccc2F)O[C@@H]1CO
  A = 8 | B = 2 | C = 5 | D = 0 | E = x | F = -4
C[C@H](CO)N1C[C@H](C)[C@@H](CN(C)S(=O)(=O)c2cccs2)Oc2ccc(NC(=O)CCCCCC(=O)Nc3ccccc3N)cc2CC1=O
  A = x | B = x | C = x | D = 0 | E = x | F = 2
Cc1ccccc1NC(=S)NC12CN3CN(CN(C3)C1)C2
  A = 0 | B = -2 | C = 0 | D = 44* | E = 0 | F = x
Cc1cccc(NC(=S)NC23CN4CN(CN(C4)C2)C3)c1C
  A = 1 | B = -1 | C = -1 | D = 44* | E = 4 | F = x
CO[C@H]1CN(C)C(=O)c2cc(NC(=O)C3CCCCC3)ccc2OC[C@@H](C)NC[C@@H]1C
  A = -2 | B = 1 | C = -11 | D = x | E = x | F = 4
C=CCNC(=O)Nc1ccc(Cl)cn1
  A = -2 | B = -1 | C = -1 | D = 43* | E = 0 | F = x
Cc1ccc(NC(=O)Nc2ccc(Cl)cn2)cc1
  A = 0 | B = -1 | C = -9 | D = 0 | E = 0 | F = x

Part of the list above, with two lines to a compound:
Order of results: ERp5 block	SIRT5 block	S100A4 MyoIIA	FGF22 binding	PDI inh	Yeast UUG start
CO[C@H]1CN(C)C(=O)c2cc(NC(=O)C3CCCCC3)ccc2OC[C@@H](C)NC[C@@H]1C
    -2	1	-11	x	x	4
O=C1c2ccccc2C(=O)c2c1ccc1c(=O)n(C3CCCCC3)[nH]c21
    0	19*	-6	x	-3	-10

Quoted from the listing.
SIRT5 block result of `CC(C)NCC(O)COc1ccc(Br)cc1` (stereo unspecified) : -2
Yeast UUG start result of `CNC(=O)C[C@H]1CC[C@H]2[C@@H](COc3ccc(NC(=O)c4ccno4)cc3C(=O)N2C)O1` : -10
